Measurements reported in US3974140A, “Ureidoacetamido-penicillins” (Bayer Aktiengesellschaft, priority 1970, dated 1976).

Test system: Pseudomon. aer. F 41
Assay: Surviving mice after intraperitoneal infection and subcutaneous therapy
Assay type: in vivo, white mice, CF1 strain
Conditions: 30 min before and 2, 4, 6 hours after infection, 1st day
Protocol: The experiments on animals (see Table 3) were carried out with white mice of the CF1 strain. The infection took place intraperitoneally with the particular bacterium indicated.

Measured: Number of surviving mice

CC1(C)S[C@@H]2[C@H](NC(=O)[C@H](NC(=O)N3CCNC3=O)c3ccccc3)C(=O)N2[C@H]1C(=O)O [Example 144 A, D(-)-α-(Imidazolidin-2-on-1-yl-carbonylamino)-benzyl-penicillin]
100%: Dose E = 50,000 units/kg | Dose F = 75,000 units/kg | Dose G = 150,000 units/kg | Dose H = 200,000 units/kg
